Broadly, the IC50 is the concentration that gives 50% inhibition. As a reminder, the Kd is a measure of binding affinity in units of concentration.

Assay [1] deals with T1, rCRFBP (Rattus norvegicus, UniProt P24388).
T1 construct: made in house; host or cells: HEK 293 cells, stably transfected (pcDNA3); serum-free conditioned medium used directly
T1 sequence (P24388 25-322): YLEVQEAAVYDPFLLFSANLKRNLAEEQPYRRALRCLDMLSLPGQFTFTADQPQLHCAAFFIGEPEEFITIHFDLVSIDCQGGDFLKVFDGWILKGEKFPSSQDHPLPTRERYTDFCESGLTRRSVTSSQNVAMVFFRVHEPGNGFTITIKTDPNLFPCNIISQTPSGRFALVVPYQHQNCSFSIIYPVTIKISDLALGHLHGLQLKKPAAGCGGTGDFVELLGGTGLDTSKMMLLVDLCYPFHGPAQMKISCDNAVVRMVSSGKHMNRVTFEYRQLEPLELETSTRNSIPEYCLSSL
In words: Radioligand binding assay (charcoal precipitation, 3H-rUcn) for affinity to rCRFBP. As for the experimental part:
The peptides were tested for their affinity to rCRFBP on the basis of a charcoal precipitation assay utilizing tritiated Ucn as radioligand (21). […] Siliconized microreaction vials (Sigma, Deisenhofen, Germany) were used to prevent binding of peptides to plastic surfaces. Competition binding experiments were performed by employing 0 to maximally 3 μM unlabeled competitor. The applied concentration range depended on the expected order of magnitude of ligand affinity. After 2 hours of incubation at room temperature, unbound ligand was precipitated by the addition of 100 μl precipitation buffer (binding buffer+10% w/v activated charcoal+2% BSA). The suspension was mixed vigorously and the adsorption was allowed to proceed for 2 min at room temperature. After centrifugation for 2 min at 12000×g, 200 μl supernatant was removed, mixed with 2 ml Ecolume liquid scintillation cocktail (ICN Biomedicals, Irvine, Calif.), and counted for 3 min in a Wallac 1209 Rackbeta liquid scintillation counter (Wallac, Turku, Finland). All assays were performed in duplicate and repeated at least three times. Binding data were analyzed using the Prism computer program (GraphPad Software, San Diego, Calif.).

The target in assay [2] is T1, rCRFBP. In words: Scintillation proximity assay with [125I-Tyr0]h/rCRF as radioligand, binding to rCRFBP. The note with it: Example 8; 95% CI given alongside; read-out: IC50 (affinity to rCRFBP). As for the experimental part:
Recombinant rCRFBP containing a C-terminal His-tag was produced in human embryonic kidney (HEK) 293 cells under serum-free conditions (45). Binding of peptides to rCRFBP was determined in PBS/0.02% NP-40 using a scintillation proximity assay with [^125I-Tyr^0]h/rCRF as radioligand (46).
On the technique in general: Scintillation proximity formats need no separation of bound from free tracer.

Setting [3] is: mean ± S.E.M. of three independent experiments in duplicate; 3H-rUcn radioligand; Cheng-Prusoff; read-out: Inhibition constants (Kl).

Read-outs that look alike come from different tables or passages of the source.

On to h/rCRF [Compound 3, reference compound], for which, at rCRFBP [1] (setting [3]), the Ki is 0.19 ± 0.009 nM.
pBB-h/rCRF [Compound 4]: at rCRFBP [1] (setting [3]), the Ki was 0.13 ± 0.003 nM. The IC50 at rCRFBP [2] was 0.67 nM.
With pBB-h/rCRF^6-33 [Compound 10], on rCRFBP [1] (setting [3]), the Ki came to 3.4 ± 0.33 nM. Further, the IC50 on rCRFBP [2] came out at 3.2 nM.
Take rUcn [Compound 1, reference compound]: the Ki on rCRFBP [1] (read-out: Inhibition constants (Kl); mean ± S.E.M. of three independent experiments in duplicate; 3H-rUcn radioligand; Cheng-Prusoff) was 0.23 ± 0.012 nM. In addition, the dissociation constant (Kd) on rCRFBP [1] (read-out: KD at rCRFBP; homologous competition experiments; mean±S.E.M., n=3) was determined as 0.17 ± 0.003 nM.

The values above are taken from patent publication US20040260071A1, “Benzophene-linked crf and crf-like peptides for covalent labeling of corticotropin-releasing factor crf binding protein” (priority 2001, published 2004).
